The series in a line: Stability in water solutions (1 g/100 ml) at 50° C. The series is classed as physicochemical. Particulars: for pH: aqueous salt solution 1 g/100 ml. The method, then:
This addition will be in the range from 0.5 mg to 3.0 mg per 1 mg of bepecin. […] The stability of bepecin salt with L-arginine in water solutions was determined after incubation of aqueous salt solutions in concentration 1 g/100 ml, at 50° C., and in a separate test in very stringent conditions: at 100° C., where the decomposition was determined after one hour.

Bepecin L-Lysine Salt (1:3) [Lys-BPC]: the pH came out at 7.28.

Regarding “Bepecin L-Ornithine Salt (1:2) [Orn-BPC]”, the pH was 7.12. For the same substance, the “Pentadecapeptide content decrement in water at 50° C./time (hours): 20” value (20 hours) turned out to be 99.64%. Moreover, the “Pentadecapeptide content decrement in water at 50° C./time (hours): 65” value (65 hours) was 99.78%. Besides, the “Pentadecapeptide content decrement in water at 50° C./time (hours): 148” value (148 hours) amounted to 99.59%. Besides, the “Pentadecapeptide content decrement in water at 50° C./time (hours): 388” value (388 hours) came to 99.44%. For the same substance, for the setting “start/0 hours”, the “Pentadecapeptide content decrement in water at 50° C./time (hours): start/0” value was 100.00%.
